Columns and labels:
[1] = molecular target: MLL4(5308–5537) SET domain construct containing the WIN motif, AviTag, biotinylated (human) (UniProt O14686)
[2] = molecular target: MLL4(5308–5537) SET domain construct containing the WIN motif, AviTag, biotinylated (human) (UniProt O14686); assay: BLI; Octet RED; biotinylated MLL1 or MLL4 construct immobilised on streptavidin biosensors; WRAD 62.5-500 nM; room temperature; 50 mM Tris-HCl pH 7.5, 350 mM NaCl, 10% glycerol, 0.5 mM DTT, 0.05% Tween 20; association 400 s, dissociation 2000 s

Which kcat of H3 peptide methyltransferase activity of the MLL4-WRAD complex [1] does the source give for “WRAD complex (WDR5, RbBP5, Ash2L, and Dpy-30) (from UniProt P61965 1-334; Q8BX09 1-538; Q91X20 1-623; Q99LT0 1-99)” here?
Its kcat of H3 peptide methyltransferase activity of the MLL4-WRAD complex is 0.0442 s⁻¹.

And the kcat of H3 peptide methyltransferase activity with equimolar WRAD, against the intrinsic activity without WRAD [1]?
The kcat of H3 peptide methyltransferase activity with equimolar WRAD, against the intrinsic activity without WRAD was 4 fold.

And the Kd [2]?
The Kd was 25 nM.
